The assay concerns Miapaca-2 cells. The assay can be described thus: MiaPaca-2 Combination Cell proliferation Assay (1) with cobimetinib. Particulars: read-out: MiaPaca-2 Combo (1) IC50, MiaPaca-2 cell proliferation. As for the experimental part: MiaPaca-2 Combination Cell proliferation Assay (1)
Miapaca-2 cells (catalog #CRL-1420) are obtained from the American Type Culture Collect (ATCC, Manassas, VA). Briefly, cells were grown in DMEM supplemented with 10% characterized fetal bovine serum (Invitrogen, Carlsbad, CA), 2.5% New Zealand sourced horse serum and 1% Penicillin/Streptomycin/L-Glutamine at 37° C., 5% CO2, and 95% humidity. Cells are expanded until reaching 70-95% confluency at which point they are subcultured or harvested for assay use. A serial dilution of test compound was dispensed into multiple 96-well black clear bottom plates in triplicate. A serial dilution of complete growth medium containing cobimetinib was prepared at twice the final concentration and 100 μL was dispensed across the test compound titration in triplicate. Three thousand cells are added per well in 100 μL complete growth medium in each 96-well plate. Plates are incubated for 67-72 hours at 37° C., 5% CO2, and 95% humidity. […] Plates are read on a Synergy2 or equivalent reader (Biotek, Winooski VT) using an excitation of 540 nm and an emission of 600 nm. Drug synergy was assessed via BLISS analysis in the Combenefit software (Cancer Research UK Cambridge Institute, Cambridge, UK). Data is analyzed using Prism software (Graphpad, San Diego, CA) to calculate IC50 values. […]

pIC50: −log10 of the molar value.

On to `CNC(=O)c1cc(-c2cc(-c3cc(NC(=O)c4ccnc(C(F)(F)F)c4)ccc3C)ccn2)ccn1`, for which the pIC50 is 6.30 to 7.00.
